The text below walks through data of patent publication US20100285988A1 (Memorial Sloan Kettering, published 2010).

The test concerns the target γ-secretase (human; HeLa cell membrane / solubilized HeLa membrane; endogenous in HEK293 cells) (human, UniProt P49768 1-467; Q92542 34-709; Q9NZ42 1-101; Q96BI3 1-265). Description: cell-based or functional assay.

B1: Aβ17-23BPA^19 (peptide)
peptide: LVFFAED
modifications: p-benzoyl-L-phenylalanine (BPA) in place of Phe at position 19 of Aβ (3rd residue of LVFFAED)
In the case of B1, the “inhibitory activity on in vitro γ-secretase, relative to Aβ17-23” value worked out at 3 fold.

B2: Aβ17-23 (LVFFAED) peptide (peptide)
peptide: LVFFAED
With B2, the “IC50, inhibition of in vitro γ-secretase activity on APP substrate (S4)” value was determined as 1500 nM; the “IC50, inhibition of γ-secretase activity” value turned out to be 1500 nM; the “IC50, inhibition of γ-secretase cleavage of Notch substrate” value amounted to 10000 nM.

B3: Aβ17-23BPA^20-biotin (peptide)
peptide: LVFFAED
modifications: p-benzoyl-L-phenylalanine (BPA) in place of Phe at position 20 of Aβ (4th residue of LVFFAED); biotin moiety at the C-terminus
notes: used at 300 nM; also called biotinylated photoreactive peptide Aβ17-23; photoactive peptide
For the molecule B3, the “IC50, inhibition of in vitro γ-secretase activity” value was 83 nM.

B4: Aβ17-21 (LVFFA) peptide (peptide)
peptide: LVFFA
In the case of B4, the “IC50, inhibition of γ-secretase activity” value worked out at 280 nM.

B5: Aβ17-20 (LVFF) peptide (peptide)
peptide: LVFF
B5: the “IC50, inhibition of γ-secretase activity” value amounted to 940 nM and the “inhibitory potency on in vitro γ-secretase activity, relative to LVFFA” value was roughly 6 fold.

B6: Aβ17-23BPA^20 (peptide)
peptide: LVFFAED
modifications: p-benzoyl-L-phenylalanine (BPA) in place of Phe at position 20 of Aβ (4th residue of LVFFAED)
With B6, the “IC50, inhibition of in vitro γ-secretase activity” value was 81 nM and the “potency on in vitro γ-secretase, relative to Aβ17-23” value amounted to 19 fold.
